Reference: patent publication US20140128385A1 (NOVARTIS AG, priority 2011, published 2014)
Read-outs that look alike come from different tables or passages of the source.

Chains of the proteins cited; added tags and fusions are not shown. Residues count along the entry.
UniProt Q9Y5Z0, 63-473 limits assumed: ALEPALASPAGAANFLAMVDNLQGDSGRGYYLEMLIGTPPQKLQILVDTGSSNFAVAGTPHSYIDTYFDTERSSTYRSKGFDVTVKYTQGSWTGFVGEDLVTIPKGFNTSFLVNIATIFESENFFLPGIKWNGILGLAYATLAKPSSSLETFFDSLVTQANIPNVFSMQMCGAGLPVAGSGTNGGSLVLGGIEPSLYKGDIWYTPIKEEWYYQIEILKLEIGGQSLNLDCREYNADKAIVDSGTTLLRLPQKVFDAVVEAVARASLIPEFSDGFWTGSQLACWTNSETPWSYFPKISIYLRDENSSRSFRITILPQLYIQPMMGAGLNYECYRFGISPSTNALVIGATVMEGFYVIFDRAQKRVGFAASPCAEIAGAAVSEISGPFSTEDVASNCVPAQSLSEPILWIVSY

Molecular target: BACE-2 (Homo sapiens, UniProt Q9Y5Z0)
Experiment: assay for inhibition of BACE-2
Format: biochemical
Conditions: read-out: BACE-2 IC50

SMILES | IC50 [nM] | IC50 (tested form: HCl) [nM]
COc1cnc(C(=O)Nc2ccc(F)c([C@]3(C(F)F)COCC(N)=N3)c2)cn1 | 496 | –
COc1ccc(C(=O)Nc2ccc(F)c([C@]3(C(F)F)COCC(N)=N3)c2)nc1 | – | 32
